Test results reported in patent EP0075141A1, “1,2,5-Oxadiazole-3,4-dicarboxylic-acid derivatives, process for their production, their use and pharmaceutical preparations containing them” (CASSELLA Aktiengesellschaft, priority 1981, dated 1983).

Tested on: Bastardhunden
Experiment: Haemodynamic study of antianginal and antihypertensive action in anaesthetised mongrel dogs
Type: in vivo
Details: Dosis 0,8 mg/kg; dogs under pentobarbital or urethane-chloralose anaesthesia

O=[N+]([O-])O[C@H]1CO[C@H]2[C@@H]1OC[C@H]2O[N+](=O)[O-]
BDm Δ (mittlerer peripherer Blutdruck): -15 mmHg | HF Δ (Herzfrequenz): +15 b/min | LVEDP Δ (linksventrikulärer enddiastolischer Druck): -3,0 mmHg | PAP Δ (mittlerer Pulmonalarteriendruck): -2,0 mmHg
